Assay results reported in publication PMC7723054.
The other results are listed elsewhere or left out.

Assays:
Experiment in all cases: FOREST: bead pull-down of RNA structure library v1, barcode microarray; U1A/LIN28A: 20 mM HEPES pH 7.5, 80 mM KCl, 20 mM NaCl, 10% glycerol, 2 mM DTT, 0.1 ug/uL BSA, 4 C; BG4/CIRBP/DHX36: 10 mM Tris-HCl pH 7.5, 100 mM KCl (or LiCl),; high values mean tight binding
LIN28A = molecular target: T1, LIN28A (human?, UniProt Q9H9Z2 1-209)
T1 sequence: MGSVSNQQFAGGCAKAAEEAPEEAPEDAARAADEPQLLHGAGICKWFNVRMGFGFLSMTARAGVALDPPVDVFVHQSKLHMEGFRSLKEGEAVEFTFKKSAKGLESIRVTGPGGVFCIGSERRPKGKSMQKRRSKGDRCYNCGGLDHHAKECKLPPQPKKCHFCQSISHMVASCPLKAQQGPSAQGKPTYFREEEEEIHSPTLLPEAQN

CIRBP = molecular target: T2, CIRBP (Homo sapiens, UniProt Q14011 1-172)
T2 sequence: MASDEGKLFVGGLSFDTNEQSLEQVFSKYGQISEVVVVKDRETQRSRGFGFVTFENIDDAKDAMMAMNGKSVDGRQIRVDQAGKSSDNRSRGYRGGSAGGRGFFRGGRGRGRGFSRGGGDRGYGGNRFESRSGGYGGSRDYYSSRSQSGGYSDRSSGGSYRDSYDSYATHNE

DHX36 = molecular target: T3, DHX36 (Homo sapiens, UniProt Q9H2U1 1-1008)
T3 sequence: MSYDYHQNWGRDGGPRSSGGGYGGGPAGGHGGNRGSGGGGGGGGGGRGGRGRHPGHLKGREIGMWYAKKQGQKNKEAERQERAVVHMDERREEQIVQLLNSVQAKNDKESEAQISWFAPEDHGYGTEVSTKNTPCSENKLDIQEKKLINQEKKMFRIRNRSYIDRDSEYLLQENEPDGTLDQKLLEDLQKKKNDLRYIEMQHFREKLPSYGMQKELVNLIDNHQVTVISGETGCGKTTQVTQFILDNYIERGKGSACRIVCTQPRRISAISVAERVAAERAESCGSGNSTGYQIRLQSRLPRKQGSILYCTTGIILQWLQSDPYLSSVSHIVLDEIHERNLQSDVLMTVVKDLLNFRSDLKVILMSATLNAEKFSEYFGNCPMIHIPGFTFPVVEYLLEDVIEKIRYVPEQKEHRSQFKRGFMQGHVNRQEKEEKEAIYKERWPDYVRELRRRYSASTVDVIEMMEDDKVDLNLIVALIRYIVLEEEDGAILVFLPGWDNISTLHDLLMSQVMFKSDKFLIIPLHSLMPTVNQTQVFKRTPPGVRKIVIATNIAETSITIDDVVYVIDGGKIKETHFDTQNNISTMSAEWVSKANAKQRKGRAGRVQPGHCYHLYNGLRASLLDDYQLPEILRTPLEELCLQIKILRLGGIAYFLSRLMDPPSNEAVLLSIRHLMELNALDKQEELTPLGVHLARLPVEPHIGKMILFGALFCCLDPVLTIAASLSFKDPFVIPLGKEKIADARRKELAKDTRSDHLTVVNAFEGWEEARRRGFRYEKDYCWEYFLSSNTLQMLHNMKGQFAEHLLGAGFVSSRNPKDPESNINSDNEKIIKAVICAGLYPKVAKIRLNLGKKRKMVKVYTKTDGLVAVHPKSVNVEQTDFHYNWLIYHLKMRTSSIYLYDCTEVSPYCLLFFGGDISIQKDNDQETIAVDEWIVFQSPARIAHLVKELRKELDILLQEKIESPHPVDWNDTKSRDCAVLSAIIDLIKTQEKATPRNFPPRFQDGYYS

Binder	binding signal (LIN28A) [z-score]	binding signal (CIRBP) [z-score]	binding signal (DHX36) [z-score]
hsa-mir-888 (structured_RNA) RNA: GGGAAUCACGAUCCUGAGACGCUAUGGGGGUGUACGAAGUUUCAGCAGUCACUUAGAUUACAUGUGACUGCUGAAGCUUCGUGCAC	0.804	-1.66	0.444
NEAT1_ParasoR_ID46 (structured_RNA) RNA: GGGAAAAGGUCGAGCGGGCUACUAGACCGGUGUACGAAGUUUCAGCACAGACGCUCUGUGCUGAAGCUUCGUGCAC	0.798	0.519	1.1
hsa-mir-143 (structured_RNA) RNA: GGGAGUCCGAAAUGGGAUGGAUAGAAAAGGUGUACGAAGUUUCAGCCUCUGGUCAGUUGGGAGUCUGAGGCUGAAGCUUCGUGCAC	0.797	-1.05	-0.405
hsa-mir-6132 (structured_RNA) RNA: GGGAAUAUCCGGUGCUCACCGCUUCCUCGGUGUACGAAGUUUCAGCUGCAGUAUCCGCUGUUGCUGCUGCUGAAGCUUCGUGCAC	0.795	1.06	0.472
hsa-mir-652 (structured_RNA) RNA: GGGAACGCGGACCAAUAGACAAUUAAGGGGUGUACGAAGUUUCAGCCAUUCACAUAGACUAUAAUUGAAUGGCUGAAGCUUCGUGCAC	0.789	0.836	0.546
hsa-mir-1284 (structured_RNA) RNA: GGGAACGCAACAGGGAUCUAAGAAUAGUGGUGUACGAAGUUUCAGCUUUCUUAAAUUUUAUAUAUUGGAAGCUGAAGCUUCGUGCAC	0.78	2.28	0.118
hsa-mir-1291 (structured_RNA) RNA: GGGAAUUCCGUUGAUGUAGGCGCCAGCUGGUGUACGAAGUUUCAGCCAGUUGUACUGUGGCUGGCUGAAGCUUCGUGCAC	0.778	0.216	-1.03
hsa-mir-1231 (structured_RNA) RNA: GGGAAACCUGCUUGUGGGAAGCUAAUGAGGUGUACGAAGUUUCAGCCUGCAGGAAAGGGAAGACCAAGGCUUGCUGUCUGUCCAGUCUGCCACCCUACCCUGUGCUGAAGCUUCGUGCAC	0.777	0.123	0.61
hsa-mir-4500 (structured_RNA) RNA: GGGAUACCAAUCCGAUGUUUACAAGGCCGGUGUACGAAGUUUCAGCAGAAGCUAAAGUGUAGAUCAAACGCAUAAUGGCUGAGCUGAAGCUUCGUGCAC	0.775	-0.0598	-0.306
hsa-mir-2861 (structured_RNA) RNA: GGGAAAGGACGGGGUCAACAAAUGGUGUGGUGUACGAAGUUUCAGCCCUCUCGGGAACUACAAGUCCCAGGGGGGCUGAAGCUUCGUGCAC	0.766	0.867	0.205
hsa-mir-1275 (structured_RNA) RNA: GGGAAGAGGUAUUUCCAAGAGCACGGCGGGUGUACGAAGUUUCAGCUGUCUUGUGUCUGUAAGUAUGCUGAAGCUUCGUGCAC	0.764	0.542	-1.07
hsa-mir-328 (structured_RNA) RNA: GGGAAUUAAGACGGGCGCAGCGGACUUAGGUGUACGAAGUUUCAGCUCAGGGAGAAAGUGCAUACAGCCCCUGGCUGAAGCUUCGUGCAC	0.764	0.00528	2.22
hsa-mir-133b (structured_RNA) RNA: GGGAACCCCGAGCGGUACAUUCAUCGAAGGUGUACGAAGUUUCAGCCAAGUCCGUCUUCCUGAGAGGUUUGGCUGAAGCUUCGUGCAC	0.761	1.56	0.336
hsa-mir-618 (structured_RNA) RNA: GGGAAGGAGUCAGUAGGACUAGCCAUCUGGUGUACGAAGUUUCAGCGAGUGUAAUUACGUACAUGCAGUAGCUCGCUGAAGCUUCGUGCAC	0.755	1.39	1.24
hsa-mir-548a-2 (structured_RNA) RNA: GGGAAAUCAGGUAGUGAUGGCCUUCACCGGUGUACGAAGUUUCAGCUUUGCCGUUAAAAGUAAUGGCAGCUGAAGCUUCGUGCAC	0.739	0.0436	-0.869
hsa-mir-494 (structured_RNA) RNA: GGGAACAUGCGAGCGUAAACGAUUAGAUGGUGUACGAAGUUUCAGCUUCUCUUUAUUUAUGAUGAAGCUGAAGCUUCGUGCAC	0.738	1.2	-0.454
hsa-mir-6867 (structured_RNA) RNA: GGGAAGCCGUUAAGACGUCCAUGUGUGCGGUGUACGAAGUUUCAGCGAAGGGAAGCUGGGAACCUGACUGCCUCGCUGAAGCUUCGUGCAC	0.72	0.675	-0.358
hsa-mir-34c (structured_RNA) RNA: GGGAAGGAAUUUAGAUCGUCACGCGGAGGGUGUACGAAGUUUCAGCGAUUGCUAAUAGUACCAAUCGCUGAAGCUUCGUGCAC	0.72	0.731	0.583
hsa-mir-3116-1 (structured_RNA) RNA: GGGAGGGGAAGCGUGUCUUCGAUCCUUUGGUGUACGAAGUUUCAGCGGCACUGGGUAUCGUAGGUGCCGCUGAAGCUUCGUGCAC	0.713	-0.752	1.34
NEAT1_ParasoR_ID31 (structured_RNA) RNA: GGGAAUGGGAUAUAACCACACAAAGGAUGGUGUACGAAGUUUCAGCAACAUGUCAUAUUGUACGUGUUGCUGAAGCUUCGUGCAC	0.71	1.33	-0.243
hsa-mir-661 (structured_RNA) RNA: GGGAAAAUCGGAGGGCUUUUGCACAAUGGGUGUACGAAGUUUCAGCGGUUUCGGGCUGCCGCUGAAGCUUCGUGCAC	0.705	0.997	0.765
hsa-mir-4639 (structured_RNA) RNA: GGGAAGAAACGUUCAGUCAAUGAUAGCCGGUGUACGAAGUUUCAGCUUGAUGUCAGGUUAUCCCCAAGCAUAACCUCACGCUGAAGCUUCGUGCAC	0.704	0.176	0.108
hsa-mir-4319 (structured_RNA) RNA: GGGAACGCCGUGAGGACAGCUAUCUUUAGGUGUACGAAGUUUCAGCCCACUGGGAAUGCUCCCUGAGGACGUUAUAUGAGUGGCUGAAGCUUCGUGCAC	0.703	-0.101	-0.924
hsa-mir-5007 (structured_RNA) RNA: GGGAAACCGGAUGAAAGUGGCUGAUCCAGGUGUACGAAGUUUCAGCUGGUUUGACACAGAGCUAAAUCAGCUGAAGCUUCGUGCAC	0.702	1.14	-0.587
G4_(GGGUU)8: (structured_RNA) RNA: GGGCACCGUACUGCCGGCGACAAAGUAUGGUGUACGAAGUUUCAGCGGGUUGGGUUGGGUUGGGUUGGGUUGGGUUGGGUUGGGUUGCUGAAGCUUCGUGCAC	0.698	4.56	7.91
hsa-mir-606 (structured_RNA) RNA: GGGAAUUGAAAGUGCCAACAAUGGUGGGGGUGUACGAAGUUUCAGCGUUUUACUAUGAUGAGGUGUGCCAUCCACCCCAUCAUAGUAAACGCUGAAGCUUCGUGCAC	0.694	1.15	1.67
